Measured values taken from PubChem BioAssay AID1825 (The Scripps Research Institute Molecular Screening Center, 2009).
This is a selection; strong and weak results do not stand in their true shares. Some tests of the compounds listed are not included; inactive here does not mean inactive elsewhere. Active and inactive are the calls of the source. Rule as the data show it: active = inhibition above about 22%; inactive = the rest.

Assay: cytotoxicity in IEC-6 intestinal epithelial cells, primary screen, cytotoxicity control for KLF5 inhibitor project, cell-based, luminescence (AID 1825);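 also: 0% = plate median of test compound wells and 100% = cytotoxic reference compound wells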
Conditions: IEC-6 cytotoxicity, luminescence viability; at 5 µM; hits give high values

Compound	inhibition
Cc1ccccc1C(=O)NCC1(N2CCCCC2)CCCCC1	inactive: 9.1%
CN(C)c1ccc(C(=O)NCC2(N(C)C)CCCCC2)cc1	inactive: 3%
CN(C)C1CCCC1OC(=O)C(O)(c1ccccc1)c1ccccc1 (centres undefined)	inactive: 1.9%
COc1ccc(C(=O)NCC2(N(C)C)CCCCC2)cc1	inactive: 6.5%
CCN1CCCC(OC(=O)C2(O)c3ccccc3C=Cc3ccccc32)C1 (centres undefined)	inactive: 2.3%
Cc1cc(C(=O)NCC2(N3CCCCC3)CCCCC2)ccc1[N+](=O)[O-]	inactive: 10%
O=C(NCC1(N2CCCCC2)CCCCC1)c1cccc(Br)c1	inactive: 2.8%
C=CCN1CCN(CCOC(=O)C(O)(c2ccccc2)c2ccccc2)CC1	inactive: -2.3%
O=C(NCC1(N2CCCCC2)CCCCC1)c1cc(F)c(F)cc1Cl	inactive: -1.5%
CN1[C@@H]2CC[C@H]1CC(OC(=O)C(O)(c1ccccc1)c1ccccc1)C2 (some centres undefined)	inactive: -2.2%
O=C(NCC1(N2CCCCC2)CCCCC1)c1cc([N+](=O)[O-])ccc1Cl	inactive: 0.1%
Cc1ccc(C(=O)NCC2(N3CCCCC3)CCCCC2)cc1	inactive: 5%
CCN(CC)CC(C)C(C)OC(=O)C(O)(c1ccccc1)c1ccccc1 (centres undefined)	inactive: -5.1%
COc1cc(SC)ccc1C(=O)NCC1(N(C)C)CCCCC1	inactive: 1.6%
CC(C)N1C(=O)CC2(CCN(CCOC(=O)C(O)(c3ccccc3)c3ccccc3)CC2)C1=O	inactive: -1.1%
O=C(OC1CN2CCC1CC2)C(CO)(c1ccccc1)c1ccccc1 (centres undefined)	inactive: 6.6%
CC(C)Oc1ccc(C(=O)NCC2(N(C)C)CCCCC2)cc1	inactive: 9.8%
CN(C)c1cccc(C(=O)NCC2(N(C)C)CCCCC2)c1	inactive: -0.2%
COc1ccc(Br)c(C(=O)NCC2(N3CCCCC3)CCCCC2)c1	inactive: -4.2%
COc1cc(C(=O)NCC2(N(C)C)CCCCC2)c([N+](=O)[O-])cc1OC	inactive: 5%
CN(C)C1(CNC(=O)c2ccc(Br)cc2)CCCCC1	inactive: -2%
O=C(NCC1(N2CCCCC2)CCCCC1)c1cccc(Cl)c1	inactive: -4.9%
COc1cccc(C(=O)NCC2(N3CCCCC3)CCCCC2)c1	inactive: -6%
COc1ccc(Cl)cc1C(=O)NCC1(N(C)C)CCCCC1	inactive: 3.3%
